{
  "source": "paper PMC3484071",
  "origin": "cited, not measured here",
  "target": "smooth muscle myosin light chain kinase peptide smMLCK peptide (UniProt Q15746)",
  "data": [
    {"substance": "Calmodulin (from UniProt P0DP23)", "values": [
      {"measurement": "Kd", "value": 1, "unit": "nM"}
    ]}
  ]
}
